# Reference: patent US10150793B2, “Antagonists of CB1 receptor” (INSERM (Institut National de la Santé et de la Recherche …, priority 2011, dated 2018)
# By UniProt entry, the sequences of proteins in these tests, tags left out.
# UniProt P47746, whole entry: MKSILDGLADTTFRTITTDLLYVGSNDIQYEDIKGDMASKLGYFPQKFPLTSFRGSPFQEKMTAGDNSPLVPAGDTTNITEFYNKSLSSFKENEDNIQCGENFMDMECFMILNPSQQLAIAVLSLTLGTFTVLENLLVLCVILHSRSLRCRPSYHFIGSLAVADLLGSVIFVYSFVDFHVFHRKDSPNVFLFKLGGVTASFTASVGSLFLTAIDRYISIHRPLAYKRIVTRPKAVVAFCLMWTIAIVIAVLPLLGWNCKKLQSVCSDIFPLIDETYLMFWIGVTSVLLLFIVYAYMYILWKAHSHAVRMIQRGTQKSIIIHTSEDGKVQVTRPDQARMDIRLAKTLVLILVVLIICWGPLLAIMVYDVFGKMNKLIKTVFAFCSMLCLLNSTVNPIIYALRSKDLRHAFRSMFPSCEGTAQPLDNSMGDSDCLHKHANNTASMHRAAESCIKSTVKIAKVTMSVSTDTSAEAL
# Experiments:
# CB1 receptor [1] = molecular target: T1, CB1 receptor (Mus musculus, UniProt P47746); details: previously shown; cited from earlier work
# CB1 receptor [2] = molecular target: T1, CB1 receptor; assay: Food intake in 24 h-food deprived mice (fasting/refeeding); assay type: in vivo, C57B1/6 mice; design: tissue Charles River Laboratories (France) (animals); host or cells: living mice, whole animal; details: SR141716A 0.05 mg/kg ip 30 min before pregnenolone 6 mg/kg
smiles,measurement,setting,value
"Cc1c(C(=O)NN2CCCCC2)nn(-c2ccc(Cl)cc2Cl)c1-c1ccc(Cl)cc1 [rimonabant, reference compound]",effect on food intake over 24 hours,CB1 receptor [1],profoundly reduce food-intake over 24 hours
same,effect on reduction in food intake induced by pregnenolone,CB1 receptor [2],suppressed the reduction in food intake induced by pregnenolone
